Activity change, negative = inhibition data for 34 compounds are collected here from PubChem BioAssay AID1347165 (National Center for Advancing Translational Sciences (NCATS), 2019).

Amino acid sequences for entries named in this document (tags omitted).
UniProt Q9UGL1, whole entry: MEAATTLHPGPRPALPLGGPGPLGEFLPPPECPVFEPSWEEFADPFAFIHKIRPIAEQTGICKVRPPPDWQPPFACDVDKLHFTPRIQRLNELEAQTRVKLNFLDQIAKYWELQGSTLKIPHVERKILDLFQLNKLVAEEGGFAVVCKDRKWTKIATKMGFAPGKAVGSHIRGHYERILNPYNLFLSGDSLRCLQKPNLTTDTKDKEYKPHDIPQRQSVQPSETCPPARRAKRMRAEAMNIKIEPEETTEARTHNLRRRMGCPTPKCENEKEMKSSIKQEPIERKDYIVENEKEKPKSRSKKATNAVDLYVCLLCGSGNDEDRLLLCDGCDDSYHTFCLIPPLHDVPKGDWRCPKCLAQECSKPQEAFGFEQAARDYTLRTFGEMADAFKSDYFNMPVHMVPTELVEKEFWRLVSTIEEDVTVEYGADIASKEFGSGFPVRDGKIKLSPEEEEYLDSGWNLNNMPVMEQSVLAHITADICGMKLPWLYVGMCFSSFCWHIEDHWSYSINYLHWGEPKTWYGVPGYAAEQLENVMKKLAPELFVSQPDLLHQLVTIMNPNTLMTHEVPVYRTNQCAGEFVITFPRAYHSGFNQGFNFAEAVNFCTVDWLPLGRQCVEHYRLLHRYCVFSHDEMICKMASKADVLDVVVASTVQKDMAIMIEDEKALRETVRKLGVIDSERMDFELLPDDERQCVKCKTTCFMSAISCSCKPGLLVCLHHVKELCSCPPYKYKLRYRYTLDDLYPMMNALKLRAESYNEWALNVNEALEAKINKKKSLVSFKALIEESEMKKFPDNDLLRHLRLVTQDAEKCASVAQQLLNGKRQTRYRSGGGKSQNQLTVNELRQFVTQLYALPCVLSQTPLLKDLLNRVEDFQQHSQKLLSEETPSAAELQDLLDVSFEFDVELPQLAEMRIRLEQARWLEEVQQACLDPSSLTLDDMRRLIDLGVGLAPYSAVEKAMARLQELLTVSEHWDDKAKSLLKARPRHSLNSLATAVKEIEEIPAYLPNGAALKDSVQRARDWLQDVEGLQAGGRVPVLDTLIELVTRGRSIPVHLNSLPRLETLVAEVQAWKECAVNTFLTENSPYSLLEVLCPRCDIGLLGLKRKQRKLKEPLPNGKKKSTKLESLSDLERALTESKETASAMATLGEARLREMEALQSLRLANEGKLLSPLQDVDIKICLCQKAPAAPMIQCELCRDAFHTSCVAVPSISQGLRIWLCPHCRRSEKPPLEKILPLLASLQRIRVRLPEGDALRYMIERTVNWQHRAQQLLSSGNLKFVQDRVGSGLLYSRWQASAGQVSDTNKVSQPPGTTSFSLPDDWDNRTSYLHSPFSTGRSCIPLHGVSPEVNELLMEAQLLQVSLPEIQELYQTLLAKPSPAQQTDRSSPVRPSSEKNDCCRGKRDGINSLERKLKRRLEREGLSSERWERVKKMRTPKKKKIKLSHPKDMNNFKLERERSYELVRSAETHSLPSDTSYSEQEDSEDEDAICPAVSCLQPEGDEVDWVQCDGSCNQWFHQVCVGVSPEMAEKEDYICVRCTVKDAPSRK

Values joined by “and” are separate entries in the source; they are usually repeats but may differ in a detail not shown here. Equal values may be shown once. The list shows a part of the results, in another mix than the full data. Inconclusive results are not listed. Active and inactive are the calls of the source. Calls come from the whole dose curve; as a rule, active = well fitted inhibition curve with a large enough effect; inconclusive = small, poorly fitted or top-dose-only effect; inactive = no such curve, though single readings can be large or run the other way.

In the assay the target is Lysine-specific demethylase 5B (Homo sapiens) (UniProt Q9UGL1). Description: Primary screen for KDM5B Histone Demethylases FDH-coupled qHTS. Note: 0% is about no effect; nearly all actives have a fitted effect of over 70% in size. The settings on record: FDH-coupled NADH fluorescence (FDH is formaldehyde dehydrogenase); at 57.7 µM (top of the series). An excerpt:
Assay Submitter (PI): Qin Yan, Ph.D. (Yale University) and Xiaodong Cheng, Ph.D. (MD Anderson) This project was funded as part of the NCI NEXT Program and Chemical Biology Consortium (CBC) The histone demethylases, KDM5A and KDM5B catalyze the demethylation of lysine 4 on histone H3 (H3K4me3/2). They are overexpressed in a variety of cancers and have been implicated in cancer cell growth, metastasis, drug resistance, and tumor growth. KDM5A is amplified and overexpressed in breast and gastric cancer; and is translocated in leukemia. While KDM5B is highly expressed in human mammary tumors and breast cancer cell lines, but not in normal adult breast tissue. Moreover, knockdown of KDM5B leads to upregulation of tumor suppressor genes, including BRCA1. The goal of this project is to employ qHTS to identify selective small molecule inhibitors of KDM5A/B demethylase activity to better understand the role of KDM5 in cancer and to develop novel therapies. We employed an FDH-coupled assay previously reported by Sakurai et al. to monitor in vitro KDM5 demethylase activity. Compounds showing dose response inhibition are re-acquired, validated, and tested for non-specific interference with the formaldehyde dehydrogenase (FDH) counterscreen. True inhibitors are validated using an AlphaLisa secondary screen, which employs an H3K4(me2-1)-specific antibody to monitor demethylation of a biotin-tagged H3K4(me3) peptide substrate. Inhibitors are profiled against KDM4A and KDM6A AlphaLisa counterscreens to determine level of demethylase specificity; and against the TruHits counterscreen to eliminate non-specific inhibitory activity on the AlphaLISA detection method. Selective inhibitors identified from the primary and secondary screening are tested in cells using immunofluorescence to monitor global H3K4 tri-methylation as a measure of KDM5A/B inhibition. Early Translation Branch (ETB) National Center for Advancing Translational Sciences (NCATS), Rockville, MD National Institute of Health (NIH), Bethesda, Maryland [1] Sakurai, M et al. A miniaturized screen for inhibitors of Jumonji histone demethylases. Mol Biosyst. 2010 Feb;6(2):357-64. doi: 10.1039/b912993f. Epub 2009 Oct 8.
Materials: 1536-well Black, solid bottom, medium binding assay plate is purchased from Greiner Bio-one. The enzymes (KDM5B) and substrate (H3K4me3/2) are provided by the principal investigators. The buffer for this assay is composed of 50mM HEPES at pH 7.5 with 0.01% Tween-20. FDH coupled Demethylase qHTS protocol: Three microliter enzyme mix (buffer + 200nM KDM5BDeltaAP final concentration) is dispensed into the assay plate using the BioRAPTR Flying Reagent Dispenser (FRD; […]). Compound (at various final concentration) and control solution is pin transferred to the assay plate using the Kalypsys 1536-pin tool apparatus. The assay plate is incubated for 10 min at room temperature followed by addition of 1uL substrate mix (buffer + 100uM ascorbic acid, 50uM ferrous ammonium sulfate, 12.5uM H3K4Me3, 25uM a-ketoglutarate, 0.25 mM NAD+, 0.25 U/mL formaldehyde dehydrogenase using the FRD yielding a total reaction volume of 4 uL. Initial fluorescence (Read1) is detected using the PerkinElmer ViewLux plate reader equipped with 340 nm excitation and 450 nm emission filters. The final fluorescence (Read2) signal is obtained after 30 min of room temperature incubation. Delta RFU is calculated (Read2 - Read1) and is used to generated dose response curves.
For the compound `CCOc1ccc(C(=O)NCC2(N3CCOCC3)CCCCC2)cc1`, the activity change, negative = inhibition is inactive: -3%.

On to `O=C(NCC1(N2CCOCC2)CCCCC1)c1cc2c(s1)CCCC2`, for which the activity change, negative = inhibition was inactive: -15%.

For the compound `CCc1cc(C(=O)NCC2(N3CCOCC3)CCCCC2)sc1C`, the activity change, negative = inhibition was inactive: 2.58%.

For the compound `CCCOc1cccc(C(=O)NCC2(N(C)C)CCCCC2)c1`, the activity change, negative = inhibition is inactive: -1.09%.

As for `CCCOc1cccc(C(=O)NCC2(N3CCOCC3)CCCCC2)c1`, the activity change, negative = inhibition was inactive: -16.7%.

`O=C(NCC1(N2CCOCC2)CCCCC1)c1ccccc1Br`: the activity change, negative = inhibition is inactive: -2.77%.

Take `CCCCOc1ccccc1C(=O)NCC1(N2CCOCC2)CCCCC1`: the activity change, negative = inhibition is inactive: -11.4%.

Regarding `O=C(NCC1(N2CCOCC2)CCCCC1)c1c[nH]c2ccccc12`, the activity change, negative = inhibition was inactive: 3.93%.

As to `O=C(NCC1(N2CCCCC2)CCCCC1)c1cncc(Br)c1`, the activity change, negative = inhibition is inactive: -19.6%.

For `COc1ccccc1C(=O)NCC1(N(C)C)CCCCC1`, the activity change, negative = inhibition is inactive: 24.6%.

For the compound `CC1CN(CCc2ccccc2)CCC1=O` (centres undefined), the activity change, negative = inhibition was inactive: 2.93%.

On to `COc1ccccc1C(=O)NCC1(N2CCOCC2)CCCCC1`, for which the activity change, negative = inhibition is inactive: -28.4%.

On to `CN(C)C1(CNC(=O)c2nn(C)c(=O)c3ccccc23)CCCCC1`, for which the activity change, negative = inhibition was inactive: -11.6%.

Regarding `O=C(NCC1(N2CCOCC2)CCCCC1)c1ccc(Cl)cc1`, the activity change, negative = inhibition was inactive: -13.2%.

Regarding `Cc1ccc(C(C)CCN(CCCl)CCCl)cc1` (centres undefined), the activity change, negative = inhibition was inactive: 0.336%.

`O=C(NCC1(N2CCCCC2)CCCCC1)c1c[nH]c2ccccc12`: the activity change, negative = inhibition is inactive: 3.45%.

In the case of `CCCOc1ccccc1C(=O)NCC1(N2CCOCC2)CCCCC1`, the activity change, negative = inhibition is inactive: 9.3%.

For `CN(C)C1(CNC(=O)c2cc3c(s2)CCC3)CCCCC1`, the activity change, negative = inhibition was inactive: -29.5%.

On to `CC1CN(CCc2ccccc2)C(C)CC1=O` (centres undefined), for which the activity change, negative = inhibition was inactive: 18.7%.

Turning to `CC(C)(C)c1ccc(C(=O)NCC2(N3CCOCC3)CCCCC2)cc1`, the activity change, negative = inhibition is inactive: -15.1%.

With `Cc1ccccc1C(=O)NCC1(N(C)C)CCCCC1`, the activity change, negative = inhibition is inactive: 6.03%.

Turning to `Cn1cc(C(=O)NCC2(N3CCOCC3)CCCCC2)c2ccccc21`, the activity change, negative = inhibition is inactive: -1.78%.

Take `CCCOc1ccc(C(=O)NCC2(N(C)C)CCCCC2)cc1`: the activity change, negative = inhibition is inactive: 28.4% and inactive: -8.69%.

Turning to `CCCOc1ccccc1C(=O)NCC1(N(C)C)CCCCC1`, the activity change, negative = inhibition is inactive: 29.2%.

Turning to `Cc1ccc2oc(C(=O)NCC3(N4CCCCC4)CCCCC3)cc(=O)c2c1`, the activity change, negative = inhibition is inactive: 14%.

Consider `COc1cc(C(=O)NCC2(N3CCOCC3)CCCCC2)cc(OC)c1OC`, for which the activity change, negative = inhibition was inactive: 17%.

With `O=C(NCC1(N2CCOCC2)CCCCC1)c1n[nH]c(=O)c2ccccc12`, the activity change, negative = inhibition is inactive: 30.9%.

In the case of `Cn1nc(C(=O)NCC2(N3CCOCC3)CCCCC2)c2ccccc2c1=O`, the activity change, negative = inhibition is inactive: 11%.

`Cc1cc(NC2CCN(Cc3ccccc3)CC2)ccc1Br`: the activity change, negative = inhibition is inactive: 8.62%.

Turning to `O=C(NCC1(N2CCCCC2)CCCCC1)c1n[nH]c(=O)c2ccccc12`, the activity change, negative = inhibition was inactive: -6.8%.

`CC1C(=O)CCN(CCc2ccccc2)C1C` (centres undefined): the activity change, negative = inhibition was inactive: 16.2%.

Take `O=C(NCC1(N2CCOCC2)CCCCC1)c1ccc([N+](=O)[O-])cc1`: the activity change, negative = inhibition is inactive: -25.7%.

Take `O=C(NCC1(N2CCOCC2)CCCCC1)c1ccccc1[N+](=O)[O-]`: the activity change, negative = inhibition was inactive: -2.82%.

For the compound `O=C(NCC1(N2CCOCC2)CCCCC1)c1ccccc1`, the activity change, negative = inhibition was inactive: -43.1%.
